Assay results: patent US7501434B2, “6-carboxy-normorphinan derivatives, synthesis and uses thereof” (Wyeth, priority 2006, dated 2009)

Chains of the proteins cited; added tags and fusions are not shown. Lines headed by an entry give the natural chain unless they say otherwise; changes in a name come on top.
UniProt P41144: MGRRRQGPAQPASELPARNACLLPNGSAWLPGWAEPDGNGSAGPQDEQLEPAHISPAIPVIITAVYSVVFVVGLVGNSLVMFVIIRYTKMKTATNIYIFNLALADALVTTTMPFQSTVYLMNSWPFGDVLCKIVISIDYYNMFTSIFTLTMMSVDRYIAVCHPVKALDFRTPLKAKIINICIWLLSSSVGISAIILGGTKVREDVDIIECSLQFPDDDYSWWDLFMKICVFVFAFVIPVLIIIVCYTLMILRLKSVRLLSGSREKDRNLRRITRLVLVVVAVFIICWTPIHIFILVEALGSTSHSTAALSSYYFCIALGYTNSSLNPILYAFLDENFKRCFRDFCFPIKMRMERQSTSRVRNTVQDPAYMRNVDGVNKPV

Molecular target: Kappa 1 (UniProt P41144)
Assay: Neurotransmitter assay (radioligand binding), Kappa 1
Settings: read-out: Kd (M) of radioligand

[3H]U-69593
Kd: 2.5e-10 M
